Measurements taken from PubChem BioAssay AID1053188 (Broad Institute, 2014).
The entries are a selection whose mix differs from that of the whole data set. The source made the active and inactive calls.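 Rule for the calls: active = mean inhibition of at least 50% with a set share of replicates also reaching that level; inconclusive = no clear call, values can overlap the other calls; inactive = the rest.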

Assay: CD40 pathway blockade in BL2 B cells – cell-based, luciferase reporter, single point, primary screen (AID 1053188);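 note: 0% = neutral control wells and 100% = IKK inhibitor VII at 50 µM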
Conditions: BL2 NF-kB luciferase reporter, CD40L-induced, 4 h; at 10 µM; hits give high values

Row | SMILES | inhibition
1 | COc1ccccc1-c1ccccn1.O=[N+]([O-])c1cc([N+](=O)[O-])c(O)c([N+](=O)[O-])c1 | inactive: -12.5%
2 | CN1CCCCC1COC(=O)C1(O)c2ccccc2CCc2ccccc21 (stereo not drawn) | inactive: 2.43%
3 | CP(=O)(Nc1cccc(Br)c1)Oc1ccccc1 (stereo not drawn) | inactive: 8.21%
4 | O=[N+]([O-])c1cc([N+](=O)[O-])c(Nc2ccc(Cl)cc2)c([N+](=O)[O-])c1 | active: 89.2%
5 | CN(C)C(=O)c1c([N+](=O)[O-])cc([N+](=O)[O-])cc1[N+](=O)[O-] | inactive: 30%
6 | O=C(OCCCN1CCCC1)C(O)(c1ccccc1)C1CCCCC1 (stereo not drawn) | inactive: 17.2%
7 | CP(=O)(OCCOc1ccccc1)OCCOc1ccccc1 | inactive: 8.99%
8 | O=[N+]([O-])c1cc([N+](=O)[O-])c(Nc2ccccn2)c([N+](=O)[O-])c1 | inactive: -2.66%
